The entries are a selection whose mix differs from that of the whole data set. Calls of active or inactive are those of the source. Rule as the data show it: active = inhibition above about 80%; inactive = the rest.
Target: Bifunctional epoxide hydrolase 2 (Homo sapiens) (UniProt P34913)
Test: soluble epoxide hydrolase inhibitors, primary screen, biochemical, human sEH (AID 707)
Conditions: recombinant human sEH enzymatic activity assay; at 2 µM; active compounds read high

The chains behind the UniProt entries cited, without tags or fusion partners.
UniProt P34913, whole entry, looked up: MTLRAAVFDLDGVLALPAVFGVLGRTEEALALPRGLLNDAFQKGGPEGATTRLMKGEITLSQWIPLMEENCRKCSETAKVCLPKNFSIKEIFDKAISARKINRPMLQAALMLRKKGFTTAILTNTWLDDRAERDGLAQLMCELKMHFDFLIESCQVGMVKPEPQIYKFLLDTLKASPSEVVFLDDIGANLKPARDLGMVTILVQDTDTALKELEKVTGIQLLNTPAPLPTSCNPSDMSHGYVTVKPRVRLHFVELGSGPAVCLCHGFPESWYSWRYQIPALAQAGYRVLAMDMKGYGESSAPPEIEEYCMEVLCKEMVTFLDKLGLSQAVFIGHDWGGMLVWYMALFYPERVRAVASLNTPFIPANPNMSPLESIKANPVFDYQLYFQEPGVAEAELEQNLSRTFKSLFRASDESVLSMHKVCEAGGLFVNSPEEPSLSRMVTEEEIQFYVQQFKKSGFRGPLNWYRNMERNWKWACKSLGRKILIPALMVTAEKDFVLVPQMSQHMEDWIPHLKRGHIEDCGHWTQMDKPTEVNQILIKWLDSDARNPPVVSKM

Compound | inhibition
CC1CCN(C(=O)Oc2c(Cl)cc(Cl)c3cccnc23)CC1 | inactive: 8.3%
CC(=O)N1C2C3N(C(C)=O)C1C1N(C(C)=O)C(C(N1C(C)=O)N3C(C)=O)N2C(C)=O | inactive: -12.2%
O=[N+]([O-])c1cccc2n[nH]nc12 | inactive: -3.4%
CCc1nc2c(n1)c1c(non1O)c1c2no[n+]1[O-] | inactive: 11.1%
CCOP(=O)(Nc1ccccc1)OCC | inactive: 8.8%
CC(C)CC(=O)NC(Sc1ccc(Cl)cc1)C(Cl)(Cl)Cl (configuration not stated) | inactive: -2%
Cc1c2non([O-])c-2c(C)[n+](=O)[n+]1[O-] | inactive: 4.2%
Oc1ccccc1CNc1ccccn1 | inactive: 15.7%
CN1CCCC(OC(=O)C(c2ccccc2)c2ccccc2)C1 (configuration not stated) | inactive: 8%
COC(=O)c1cc2c(s1)N=C(c1ccccc1)N(C)P2(=O)N1CCOCC1 (configuration not stated) | inactive: 5%
CCC(=O)N1C2C3N(C(=O)CC)C1C1N(C(=O)CC)C(C(N1C(=O)CC)N3C(=O)CC)N2C(=O)CC | inactive: 0.6%
CCOC(=O)NC(Sc1ccccc1)C(Cl)(Cl)Cl (configuration not stated) | inactive: 0.6%
O=P(Nc1nccs1)(c1ccccc1)c1ccccc1 | inactive: 5.3%
c1nnnn1CCn1cnnn1 | inactive: 3.5%
CC1(CBr)Cn2c(nc3ccccc3c2=O)S1 (configuration not stated) | inactive: -6.8%
O=P1(Nc2ccccn2)COc2ccccc2OC1 | inactive: 6.7%
Clc1n[nH]nc1-c1nn[nH][15n]1 | inactive: 6.9%
O=P1(Nc2ncccn2)COc2ccccc2OC1 | inactive: 3.6%
Cc1ccc(OCC(=O)OC2CN3CCC2CC3)cc1 (configuration not stated) | inactive: 20.7%
Cc1nn(-c2ccccc2)c2c1P(=O)(N1CCOCC1)N(C)C(c1ccccc1)=N2 (configuration not stated) | inactive: -14.9%
O=[N+]([O-])c1ccc2c(c1)nnn2O | inactive: 3%
CCOP1(=S)c2c(C)nn(CCC#N)c2N=C(c2ccc(F)cc2)N1C (configuration not stated) | inactive: -3.9%
Cc1cccc(OCC(=O)OC2CN3CCC2CC3)c1 (configuration not stated) | inactive: -3.1%
ClCCSc1nnc(-c2cccnc2)o1 | inactive: 13.5%
CCN(CC)C(=S)SC(NC=O)C(Cl)(Cl)Cl (configuration not stated) | inactive: 11.3%
CCC(C)N(CC(C)C)C(=S)SC(NC(C)=O)C(Cl)(Cl)Cl (configuration not stated) | inactive: 1.4%
COP1(=S)c2c(C)nn(CCC#N)c2N=C(c2ccc(F)cc2)N1C (configuration not stated) | inactive: 2.1%

Source: PubChem BioAssay AID707 (Columbia University Molecular Screening Center, 2007)
